Here are results for one substance from patent US11124489B2, “EPAC antagonists” (priority 2017, dated 2021).

One test has as its target EPAC1 (Homo sapiens (Human), UniProt O95398). The conditions noted are these: read-out: Rap 1b-bGDP EPAC1 IC50; apparent IC50, EPAC1 GEF activity, 20 μM cAMP.
The next test concerns the target EPAC2 (Mus musculus (Mouse), UniProt Q9EQZ6).

Values joined by “and” are separate entries in the source; they are usually repeats but may differ in a detail not shown here. Identical values can stand only once.

As for “N-(3,5-Bis(trifluoromethyl)phenyl)-2-(5-(4-chlorophenyl)isoxazol-3-yl)-2-oxoacetohydrazonoyl cyanide [Compound 24]”, the IC50 at EPAC1 was 5.6 µM and < 8 µM; on EPAC2 (read-out: Rap1b-bGDP EPAC2 IC50, apparent IC50, EPAC2 GEF activity, 20 μM cAMP), 7 ± 0.9 µM. For the same substance, the “Relative GEF activity, EPAC2-mediated Rap1b-bGDP exchange” value at EPAC2 (in the presence of 20 μM cAMP, figure) is reported as “Dose-dependent inhibition”.

As a reminder, the IC50 is the concentration that inhibits the measured activity by half.
